# According to patent publication US5780605A, “6,9-bridged erythromycin derivatives” (Abbott Laboratories, priority 1997, dated 1998):
# Tested on: Streptococcus Pheumoniae 5979
# Test: in vitro antibacterial activity (MIC), BHI agar dilution
# Type: cell-based
# Conditions: 35-37° C., 20 to 24 hours
# Procedure: Representative compounds of the present invention were assayed in vitro for antibacterial activity as follows: Twelve petri dishes containing successive aqueous dilutions of the test compound mixed with 10 mL of sterilized Brain Heart Infusion (BHI) agar (Difco 0418-01-5) were prepared. Each plate was inoculated with 1:100 (or 1:10 for slow-growing strains, such as Micrococcus and Streptococcus) dilutions of up to 32 different microorganisms, using a Steers replicator block. The inoculated plates were incubated at 35°-37° C. for 20 to 24 hours. In addition, a control plate, using BHI agar containing no test compound, was prepared and incubated at the beginning and end of each test.
# An additional plate containing a compound having known susceptibility patterns for the organisms being tested and belonging to the same antibiotic class as the test compound was also prepared and incubated as a further control, as well as to provide test-to-test comparability. Erythromycin A was used for this purpose.
# After incubation, each plate was visually inspected. The minimum inhibitory concentration (MIC) was defined as the lowest concentration of drug yielding no growth, a slight haze, or sparsely isolated colonies on the inoculum spot as compared to the growth control.
smiles,measurement,value
"CC[C@H]1OC(=O)[C@H](C)[C@@H](O[C@H]2C[C@@](C)(OC)[C@@H](O)[C@H](C)O2)[C@H](C)[C@@H](O[C@@H]2O[C@H](C)C[C@H](N(C)C)[C@H]2O)[C@](C)(O)C[C@@H](C)C(=O)[C@H](C)[C@@H](O)[C@]1(C)O [Ery. A, Erythromycin A, reference compound]",MIC (minimum inhibitory concentration),> 128
